One compound from ChEMBL document CHEMBL3886521, “Serine/threonine kinase inhibitors” (2016) can be followed below.

Chains of the proteins cited; added tags and fusions are not shown.
UniProt P28482, whole entry: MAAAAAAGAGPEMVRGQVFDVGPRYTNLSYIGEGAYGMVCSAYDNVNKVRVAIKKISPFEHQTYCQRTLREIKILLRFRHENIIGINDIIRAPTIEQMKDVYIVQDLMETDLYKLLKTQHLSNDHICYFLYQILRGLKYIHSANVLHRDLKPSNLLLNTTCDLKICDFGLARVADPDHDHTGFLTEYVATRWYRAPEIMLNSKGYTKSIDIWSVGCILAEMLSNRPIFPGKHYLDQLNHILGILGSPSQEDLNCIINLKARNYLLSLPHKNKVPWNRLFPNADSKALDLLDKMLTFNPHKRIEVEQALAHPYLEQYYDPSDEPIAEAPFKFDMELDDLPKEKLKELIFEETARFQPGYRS

Each structure is given as a SMILES string.

In this experiment the target is Mitogen-activated protein kinase 1 (Homo sapiens, UniProt P28482).

As a reminder, the IC50 is the concentration that inhibits the measured activity by half. `Cc1nn(C)cc1Nc1nccc(-c2ccn([C@H](CO)c3ccc(Cl)c(F)c3)c(=O)c2)n1` yielded an IC50 of 3.1 nM.
